## Ab-14 light chain CDR variants: yeast mating affinities

The target is the same throughout: PDVDLGDISGINAS, from the HR2 region of SARS-CoV-2 spike.

Parent scFv Ab-14: VH joined to VL by the linker GGGGSGGGGSGGGGS. Changes lie in the light chain CDRs alone.
VH: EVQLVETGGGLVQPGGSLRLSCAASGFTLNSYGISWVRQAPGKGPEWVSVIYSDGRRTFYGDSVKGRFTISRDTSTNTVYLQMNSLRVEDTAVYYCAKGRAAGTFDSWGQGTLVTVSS
VL: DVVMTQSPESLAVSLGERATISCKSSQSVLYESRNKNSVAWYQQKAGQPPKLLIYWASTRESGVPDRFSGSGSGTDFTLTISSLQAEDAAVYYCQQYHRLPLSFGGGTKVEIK

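The starting antibody came from a phage panning campaign against this peptide. AAYL50 was designed without a model: most single CDR substitutions and a random sample of double and triple ones. In AlphaSeq, yeast of one mating type display the scFv and yeast of the other type display the target. After mating in shaken culture at 30 °C for 16 h, diploids were selected and their barcode pairs sequenced. A regression on co-assayed BCL2-family reference pairs converts the normalised counts of each replicate to an apparent Kd. Mating was done three times.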

Changes read parent residue, position, new residue, counted from the first residue of the VL shown. Affinities are written as log10 Kd with Kd in nM; a lower number is a better binder. "nd" marks a missing value. The strain was present, yet no cells mated with the target were sequenced in that replicate, which points to weak or no binding. Empty control strains, which show no peptide, gave a signal in 18% of pairings with library AAYL50; the median was 4.19 and 95% of these signals were weaker than 2.99. No background was subtracted. Also given: how often the same scFv was detected with the empty control strains, with their mean in brackets.

changes | replicates, log10 nM | signal with controls
S28K V29K S58W | 3.23 nd nd | 1 of 9 (3.50)
A40W H98S L102W | 6.09 nd 5.25 | 5 of 9 (4.88)
S28H A57F H98Y | nd nd nd | 0 of 9
S33V S103D | 3.79 nd nd | 5 of 9 (3.76)
A57L L100T S103P | 3.48 nd 5.08 | 3 of 9 (4.71)
S62R P101M | 4.55 5.12 4.10 | 4 of 9 (4.45)
E32M W56N H98G | 0.16 0.42 0.35 | 3 of 9 (4.79)
S28P N35W S103K | 0.83 1.34 1.15 | 2 of 9 (4.42)
S25W S28N Y97D | 5.26 nd nd | 0 of 9
S58A S62F Q95K | 1.91 2.26 2.44 | 0 of 9
S28D Q96K L100Q | 3.75 nd 4.76 | 1 of 9 (3.97)
E32D H98P | 1.83 2.30 2.57 | 0 of 9
N35C A40Y S103C | nd nd nd | 0 of 9
E32S S58C L102Y | 3.77 nd 3.01 | 0 of 9
S28L V29E R60K | 2.03 1.91 1.66 | 0 of 9
T59F L100G | 2.35 2.24 2.25 | 2 of 9 (4.46)
V29G R34Q H98T | 0.50 0.95 0.92 | 2 of 9 (5.29)
S33P A40F W56V | nd nd 4.65 | 0 of 9
K24T W56P E61R | 3.60 nd 4.72 | 4 of 9 (4.14)
A57R S58A Y97H | nd nd nd | 2 of 9 (4.24)
A40T Q95L Q96Y | nd 3.92 4.71 | 2 of 9 (3.40)
S25W S62W L100K | 2.58 2.60 2.55 | 0 of 9
K24W E32Q L100E | 2.07 2.22 2.73 | 0 of 9
N35Y Q96V | nd nd 3.97 | 1 of 9 (3.85)
S25I S26E K36D | 0.02 0.35 0.09 | 0 of 9
N35L A57L R60G | nd nd nd | 0 of 9
V29C S33N P101H | nd nd nd | 2 of 9 (3.54)
A57I Q96M R99I | nd 3.18 3.74 | 0 of 9
S38H S58W Q96W | nd nd nd | 1 of 9 (3.77)
V29M N35G P101Q | 1.18 1.47 1.27 | 3 of 9 (4.22)
N35W N37T L100D | 3.16 nd 4.33 | 2 of 9 (4.57)
W56Y L100D | nd 2.28 nd | 1 of 9 (3.03)
R34F Q95N L100D | 0.73 0.94 0.83 | 0 of 9
E32C W56F | nd nd nd | 1 of 9 (3.11)
V29E P101V S103A | nd nd nd | 0 of 9
V29E S33I V39R | nd nd nd | 1 of 9 (3.86)
Q27D V39Q Q95H | 4.69 4.25 nd | 4 of 9 (4.56)
S26T V29S R34L | 0.85 0.85 0.82 | 1 of 9 (5.44)
S33I K36A L102E | nd nd nd | 0 of 9
V29Y N35W | 1.76 1.63 1.96 | 2 of 9 (4.39)
E32M R34Q R60T | 3.67 2.99 3.05 | 2 of 9 (5.20)
A40W Q96A L100P | 4.05 nd nd | 0 of 9
L30N R60H | 2.14 nd nd | 0 of 9

The first 5 variants above that were never detected:

changes,"replicates, log10 nM",signal with controls
S28H A57F H98Y,nd nd nd,0 of 9
N35C A40Y S103C,nd nd nd,0 of 9
A57R S58A Y97H,nd nd nd,2 of 9 (4.24)
N35L A57L R60G,nd nd nd,0 of 9
V29C S33N P101H,nd nd nd,2 of 9 (3.54)

In this assay the parent's reference entry averaged 0.65; its copy inside this library read 1.68.

Data: MIT Lincoln Laboratory AlphaSeq set, Engelhart et al. 2022, doi:10.1038/s41597-022-01779-4, as distributed in FLAb.